In US20260384421A1, “NOVEL COMPOUNDS THAT CAN BE USED AS THERAPEUTIC AGENTS” (published 2026):
Like-named read-outs stand apart in the source and are kept apart here.

Experiments:
HEP-G2 cells = assay: alamarBlue proliferation assay with HEP-G2 cells; settings: read-out: Activity on HEP-G2: IC50, RPMI 1640 medium, 10% FBS
A-431 cells = assay: alamarBlue proliferation assay with A-431 cells; settings: read-out: Activity on A-431: IC50, DMEM medium, 10% FBS
MDA-MB-231 cells = assay: alamarBlue proliferation assay with MDA-MB-231 cells (glucose-free Leibovitz's L-15 medium)
HCC-1395 cells = assay: alamarBlue proliferation assay with HCC-1395 cells; settings: read-out: Activity on HCC-1395 (IC50), day 5
Source text: (§1) These hyperproliferative processes can be benign or malignant and include hyperplasia, neoplasia, cancer and pre-cancerous lesions, and metastases. The antiproliferative activities of compounds falling under general formula (I) were investigated on human primary epidermal keratinocytes (HPEK) and human, murine and canine cell lines derived from hyperproliferative tissue or different cancer types, including MDA-MB-231, ZR-75-30, HCC-1395, HCC-1937, and T-47D all originating from cancer of the breast, JURKAT, RPMI-8402, LOUCY, TANQUE, REC-1, HL-60, NB-4 all originating from different types of blood cancer including lymphoma and leukemia of T-cells, B-cells and myeloid cells, TT originating from cancer of the neuroendocrine system, HeLa originating from cancer of the cervix, 23132/87, SW-948, and HCT-116 all originating from cancer of the gastrointestinal tract including stomach and colon, BHY originating from cancer of the mucosal epithelium, A-431 originating from cancer of the skin, HEP-G2 originating from cancer of the liver, NCI-H460 and A-549 both originating from cancer of the lung, PANC-1 originating from cancer of the pancreas, U-87 MG originating from cancer of the brain, A-375 and RVH-421 both originating from cancer of melanocytes, SW-1353 originating from cancer of bone-derived chondrocytes, C2C12 a mouse cell line originating from hyperproliferative muscle progenitor cells, LL/2 a mouse cell line originating from cancer of the lung, CF21.T a dog cell line originating from cancer of the connective tissue. To this end, according cells were seeded into 96-well plates (CORNING #3598) suitable for fluorescence assays at following initial cell numbers: 1000 cells per well for HPEK; 3000 cells per well for MDA-MB-231, 8000 cells per well for ZR-75-30, 1500 cells per well for HCC-1395, 1500 cells per well for HCC-1937, 3000 cells per well for T-47D, 1500 cells per well for JURKAT, 5000 cells per well for RPMI-8402, 9000 cells per well for LOUCY, 1500 cells per well for TANQUE, 9000 cells per well for REC-1, 1000 cells per well for HL-60, 1000 cells per well for NB-4, 9000 cells per well for TT, 2000 cells per well for HeLa, 2000 cells per well for 23132/87, 9000 cells per well for SW-948, 700 cells per well for HCT-116, 1500 cells per well for BHY, 700 cells per well for A-431, 1500 cells per well for HEP-G2, 500 cells per well for NCI-H460, 1000 cells per well for A-549, 1500 cells per well for PANC-1, 2500 cells per well for U-87 MG, 700 cells per well for A-375, 1500 cells per well for RVH-421, 2000 cells per well for SW-1353, 500 cells per well for C2C12, 500 cells per well for LL/2, and 3000 cells per well for CF21.T. In a volume of 90 μL per well of culture medium the cells were treated with compounds at indicated final concentrations by adding 10 μL per well of 10× compound working solutions from 1:100 pre-diluted 1000× compound DMSO stock-solutions in H2O (Water For Injection, WFI, Fisher Scientific, Gibco™ #A12873) or with the empty carrier DMSO (AppliChem, #A3672) at 0.1% v/v as control yielding a final volume of 100 μL per well. At day 5 after starting the treatments the cells were subjected to the alamarBlue® Proliferation Assay (Bio-Rad Serotec GmbH, BUF012B) according to the protocol of the manufacturer. The readout was taken with a multi-well plate-reader (Tecan Spark®) in the fluorescence mode with applying a filter for excitation at 560 nm (band width 10 nm) and for emission at 590 nm (band width 10 nm). Treatment for maximum proliferation inhibition with the commercial cytotoxic compound (S)-(+)-camptothecin (Fluorochem #M01564) at a concentration of 10 μM was included on each plate for assay quality control. Some of the test compounds of the present invention may have been obtained and applied as their salt forms.
(§2) The assays were performed in duplicate or more replicates of independent single experiments each containing a three- to six-fold replicate for every condition. […]

23132/87 cells = assay: alamarBlue proliferation assay with 23132/87 cells; settings: read-out: Activity on 23132/87: IC50, RPMI 1640 medium, 10% FBS
Source text: as §1, §2

A-549 cells = assay: alamarBlue proliferation assay with A-549 cells; settings: read-out: Activity on A-549: IC50, DMEM medium, 10% FBS
SW-1353 cells = assay: alamarBlue proliferation assay with SW-1353 cells (glucose-free L-15 medium); settings: read-out: Activity on SW-1353: IC50, Leibovitz's L-15 medium, 10% FBS, 0% CO2
C2C12 cells = assay: alamarBlue proliferation assay with C2C12 cells; settings: read-out: Activity on C2C12: IC50; C2C12 murine myoblast cells, RPMI 1640 medium, 10% FBS
HPEKp cells = assay: proliferation assay with human epidermal keratinocyte progenitors (HPEKp), selectivity versus MDA-MB-231; settings: read-out: Activity (HPEK): antiproliferative activity on HPEK cells, IC50 category; HPEK cells cultivated in CnT-Prime medium
PANC-1 cells = assay: alamarBlue proliferation assay with PANC-1 cells; settings: read-out: Activity on PANC-1: IC50, DMEM medium, 10% FBS
Source text: as §1, §2

U-87 MG cells = assay: alamarBlue proliferation assay with U-87 MG cells; settings: read-out: Activity on U-87MG: IC50, EMEM medium, 10% FBS
[1] = tested on: AMPK (Thr172 phosphorylation) in HEP-G2 cells; assay: AMPK activation assay on HEP-G2 cells (Thr172 phosphorylation, western blot); settings: 10 nM, 20 hours, Thr172 phosphorylation relative to DMSO control
Method: AMPK activation can be assessed by the levels of AMPK phosphorylation at Thr172. The APMK activating activities of compounds falling under general formula (I) were investigated by western blotting on different cancer cell lines. Access and cultivation of the respective cell lines are as described above. To this end, A-549, HEP-G2, and HCT-116 cells were seeded into 6-well culture plates (Cyto-One®, #CC7682-7506) in a total volume of 2 mL at a density to achieve 80% confluency by 48 hours and incubated over night at 37 °C and 5% CO2. Cells were treated at a confluency of around 50% with compounds at indicated final concentration by adding 2 μL per well of a 1000× compound DMSO stock-solution. Cells were incubated for 20 hours at 37 °C and 5% CO2. Then, cells were lysed in RIPA buffer (Pierce™ RIPA Buffer, FisherScientific, #89900) supplemented with 1× cOmplete™ Mini Protease Inhibitor Cocktail (Roche, #11836153001) and 1 mM Sodium Orthovanadate (Na3VO3, FisherScientific, #J60191) and lysates were subjected to standard western blotting procedure. Protein concentration of the samples was determined by BCA assay and samples were normalized to achieve equal protein concentration. 4× Laemmli Sample Buffer (Bio-Rad, #1610747) was supplemented with 200 μM DTT (Sigma Aldrich-Merck, #D9779) and added to the samples to achieve a final concentration of 1× Laemmli/50 μM DTT by diluting lysate samples with supplemented Laemmli buffer 1:4. Samples were then incubated at 95 °C for 5 min in a Thermomixer (Eppendorf). SDS-PAGE was performed in 1× Tris/Glycine/SDS buffer (TGS, Bio-Rad, #1610772) using 4-15% gradient polyacrylamide gels (4-15% Mini-PROTEAN® TGX Stain-Free™ Gel, Bio-Rad, #456-8084). Proteins were transferred onto 0.2 μm PVDF membranes using the semi-dry Trans-Blot® Turbo™ transfer system (Trans-Blot® Turbo™, Bio-Rad, #170-4150) with prepacked Trans-Blot® Turbo™ transfer packs (Bio-Rad, #170-4156). Immunodetection of AMPK, pAMPK (Thr172), and β-Actin was performed using the following primary antibodies: AMPKα (F6) Mouse mAb (Cell Signaling Technologies, #2793) for AMPK, Phospho-AMPKα (Thr172) (40H9) Rabbit mAb (Cell Signaling Technologies, #2535) for pAMPK (Thr172), and Purified anti-β-actin Antibody (Rat monoclonal, W16197A) (Cell Signaling Technologies, #664802) for β-Actin. HRP-linked secondary antibodies in 5% nonfat dried milk (AppliChem, #A0830) in 1×TBS containing 0.1% Tween-20 were used for the corresponding species mouse, rabbit and rat (Cell Signaling Technologies, #7076, #7074, #7077), respectively. Signals were developed with chemiluminescence substrate (SuperSignal™ West Pico PLUS, Fisher Scientific, #34577) and detected with the ChemiDoc™ MP imaging system (ChemiDoc™ MP, Bio-Rad, #12003154). Chemiluminescence signals of phosphorylation, total protein and loading control were quantified by densitometry using the image analysis software Image Lab™ (version 6.0.1, Bio-Rad). The corresponding lysates from DMSO treated cells were included on each membrane as the base line control for blot-internal signal normalization. The standard deviation of signal intensities of the loading control-Actin within each blot was 16% or lower confirming equal loading of protein amounts.
For each condition, the ratio of phosphorylation to corresponding total protein was calculated from the signal intensities. The ratios were then normalized to the corresponding ratio of the DMSO control to yield the fold-change values of phosphorylation.
In the following embodiments, a compound is considered as an AMPK activator if the fold-change value of phosphorylation is 1.5 or higher, preferably 2.0 or higher, and more preferably 2.5 or higher as determined with the method described above.

NCI-H460 cells = assay: alamarBlue proliferation assay with NCI-H460 cells; settings: read-out: Activity on NCI-H460: IC50, RPMI 1640 medium, 10% FBS
[2] = read-out: Activity on MDA-MB-231 (IC50), glucose-free Leibovitz's L-15, 10% FBS, day 5, alamarBlue
[3] = read-out: Activity (MDA): antiproliferative activity on MDA-MB-231 cells, IC50 category, MDA-MB-231 cells cultivated in glucose-free Leibovitz's L-15 medium

| SMILES | IC50 (HEP-G2 cells) [µM] | IC50 (A-431 cells) [µM] | IC50 (MDA-MB-231 cells; [2]) [µM] | IC50 (HCC-1395 cells) [µM] | IC50 (A-549 cells) [µM] | IC50 (23132/87 cells) [µM] | other results |
| --- | --- | --- | --- | --- | --- | --- | --- |
| COc1cc(C2CCCCC2)cc(C=O)c1Oc1ccc(C(=O)N2CCN(Cc3ccccc3)CC2)cc1 | ≤ 20 | ≤ 20 | ≤ 5 | ≤ 20 |  |  |  |
| COc1ccc(CN2CC3(C2)CN(C(=O)c2ccc(Oc4ccc(C5CCCCC5)cc4CO)cn2)C3)cc1 | ≤ 5 |  | ≤ 5 |  | ≤ 5 | ≤ 5 |  |
| O=C(c1ccc(Oc2ccc(C3CCC4(CC3)SCCS4)cc2CO)cc1)N1CCN(Cc2ccccc2)CC1 |  |  | ≤ 0.2 |  | ≤ 5 |  | IC50 (SW-1353 cells): ≤ 0.2 µM; IC50 (C2C12 cells): ≤ 20 µM; IC50 (MDA-MB-231 cells; [3]): < 1 µM; IC50 (HPEKp cells): < 5 µM; IC50 (PANC-1 cells): ≤ 20 µM; IC50 (U-87 MG cells): ≤ 5 µM |
| O=Cc1cc(C2CCC3(CC2)OCCO3)ccc1Oc1ccc(C(=O)N2CCN(Cc3cccnc3)CC2)cc1 | ≤ 5 | ≤ 5 | ≤ 1 | ≤ 5 |  |  |  |
| O=Cc1cc(C2CCC3(CC2)OCCO3)ccc1Oc1ccc(C(=O)N2CCN(Cc3cccc4cccnc34)CC2)cc1 | ≤ 5 | ≤ 5 | ≤ 0.2 | ≤ 20 |  |  |  |
| O=Cc1cc(C2CCC3(CC2)OCCO3)ccc1Oc1ccc(C(=O)N2CCN(CC3CCCC3)CC2)cc1 | ≤ 20 | ≤ 5 | ≤ 5 | ≤ 20 |  |  |  |
| O=Cc1cc(C2CCC3(CC2)OCCO3)ccc1Oc1ccc(C(=O)N2CCN(C(=O)c3ccccc3)CC2)cc1 | ≤ 5 |  | ≤ 5 |  | ≤ 5 | ≤ 5 |  |
| O=Cc1cc(C2CCC3(CC2)OCCO3)ccc1Oc1ccc(C(=O)N2CCN(Cc3ccc(Cl)cc3)C3CCCCC32)cc1 (stereo not shown) | ≤ 5 |  | ≤ 5 |  | ≤ 5 | ≤ 5 |  |

Now from value to compound, other results behind:

| IC50 (HEP-G2 cells) [µM] | IC50 (A-431 cells) [µM] | IC50 (MDA-MB-231 cells; [2]) [µM] | IC50 (HCC-1395 cells) [µM] | IC50 (A-549 cells) [µM] | SMILES | IC50 (23132/87 cells) [µM] | other results |
| --- | --- | --- | --- | --- | --- | --- | --- |
| ≤ 1 | ≤ 5 | ≤ 5 | ≤ 5 |  | CCOC(=O)CN1CCN(C(=O)c2ccc(Oc3ccc(C4CCC5(CC4)OCCO5)cc3C=O)cc2)CC1=O |  |  |
| ≤ 0.2 | ≤ 0.2 | ≤ 0.2 |  |  | O=Cc1cc(C2CCC3(CC2)OCCO3)ccc1Oc1ccc(C(=O)N2CCN(Cc3ccc4ccccc4c3)CC2)cc1 |  | IC50 (MDA-MB-231 cells; [3]): < 1 µM; IC50 (HPEKp cells): < 5 µM; Fold-change AMPK activation [1]: ≥1.5 |
| ≤ 0.2 |  |  |  | ≤ 0.2 | COC1CCC(c2ccc(Oc3ccc(C(=O)N4CCN(Cc5ccc(S(F)(F)(F)(F)F)cc5)CC4)cc3)c(O)c2)CC1 (stereo not shown) | ≤ 5 | Fold-change AMPK activation [1]: ≥2.5 |
| ≤ 0.2 | ≤ 0.2 | ≤ 0.2 | ≤ 5 |  | COc1ccc(CN2CCN(C(=O)c3ccc(Oc4ccc(C5CCC6(CC5)OCCO6)cc4C=O)cc3)CC2)cc1 |  |  |
| ≤ 1 | ≤ 1 | ≤ 0.2 | ≤ 20 |  | O=Cc1cc(C2CCC3(CC2)OCCO3)ccc1Oc1ccc(C(=O)N2CCN(Cc3ccc(Cl)cc3)CC2)cc1 |  | IC50 (NCI-H460 cells): ≤ 0.2 µM; IC50 (MDA-MB-231 cells; [3]): < 1 µM; IC50 (HPEKp cells): < 5 µM |
